{
  "source": "patent US11925623B2",
  "about": "(priority 2020, dated 2024)",
  "origin": "cited, not measured here",
  "key": {"cyanide toxicity [1]": {"tested_on": "cyanide toxicity", "settings": "sublethal murine model; ip and iv; cited from earlier work"}, "cyanide toxicity [2]": {"tested_on": "cyanide toxicity", "settings": "lethal swine model; ip and iv; cited from earlier work"}},
  "note": "Read-outs that look alike come from different tables or passages of the source.",
  "data": [
    {"molecule": "O=C(O)C1(O)CSC(O)(C(=O)O)CS1", "note": "(centres unmarked) [sulfanegen]", "values": [
      {"measurement": "rescue from cyanide toxicity", "setting": "cyanide toxicity [1]", "result": "highly effective"},
      {"measurement": "rescue from cyanide toxicity", "setting": "cyanide toxicity [2]", "result": "highly effective"}
    ]}
  ]
}
